An excerpt weighted towards active compounds, which were near 1.5% of everything screened.
miR122 inh = miR-122 Renilla sensor signal increase in Huh7, primary screen, miR-122 inhibitor project, cell-based, single point, plate reader. Huh7 miR-122 Renilla luciferase sensor, 48 h; neutral wells = 0, positive control = 100. hit rate 0.3% among 340,000. AID 602342, 2012. activation (reporter increase), % at 12.5 µM;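 active means mean replicate activation score at least 90 and every replicate individually at or above 90; inconclusive means only one of the two criteria met; inactive means neither criterion met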;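 further: higher luciferase means less miR-122 activity so hits act as miR-122 inhibitors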
PGC1a acetyl inh = inhibitors of PGC1a acetylation signal, primary screen, cell-based, U2OS, AlphaScreen, inhibitor mode | AlphaScreen anti-acetyl-lysine; with virally co-expressed GCN5 acetyltransferase | inhibition, % at 15.6 µM | hit rate 0.17% among 350,000 | AID 651687, 2012;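 active means every replicate shows inhibition of at least 40%; inconclusive means mean inhibition at least 40% but some replicate below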;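 further: 0% = neutral control wells and 100% = positive control wells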
Cneo AK release = Cryptococcus neoformans cell lysis inducers, primary screen, AK release luminescence, single concentration; C. neoformans lysis, adenylate kinase release luminescence, 4 h; normalised: neutral wells 0, clomiphene wells 100; lysis activity, % at 15 µM; hit rate 0.2% among 360,000; AID 651654, 2012;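 active means mean lysis activity across replicates of at least 80%, whatever share of replicates individually reach that level; inactive means mean lysis activity below 80%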
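Material – Cryptococcus neoformans yeast cells · Quantity – 5 × 10^6 yeast cells/mL · Buffer or medium – YPD medium · Compound – single dose · Timing – 4 h static compound exposure, 37 °C, read 1 h post-reagent · Signal – adenylate kinase release luminescence · Read-out basis – lysis from increased AK signal · Benchmarks – Clomiphene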
FN deposition inh = inhibitors of fibronectin matrix deposition, primary screen, AH1F cells, Alexa488-fibronectin fluorescence, plate reader. AH1F fibroblasts, overnight. inhibition, % at 12.6 µM. hit rate 0.086% among 350,000;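 active means mean inhibition across replicates of 30% or more, regardless of how many single replicates reach that level; inconclusive means mean under 30% yet at least half of replicates reach 30%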;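 further: positive control wells lacked labelled fibronectin entirely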
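test system = AH1F fibroblasts assembling fluorescent fibronectin matrix | quantity = 10000 AH1F cells per well | buffer or medium = DMEM plus 2% serum, read in PBS | doses = single dose, pinned | incubation = 1 h cell attachment, overnight exposure to compound and label | detection = fluorescence at 485 nm excitation, 525 nm emission | read-out basis = inhibition from reduced deposited-fibronectin fluorescence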
Yeast UUG start = modulators of yeast start codon fidelity, primary screen, whole organism, S. cerevisiae, single point, plate reader. S. cerevisiae UUG-firefly luciferase reporter, luminescence/redox ratio. activity score, % at 18.7 µM. hit rate 0.13% among 350,000;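 active = replicate mean at a twofold rise or more, about +100% in these data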;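 also: firefly luciferase made from a UUG start codon reports start codon fidelity; reporter light over untreated wells divided by growth signal over untreated wells; some hits fall short of that in this replicate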
Env fusion inh = inhibitors of HIV-1 Env-driven cell-cell fusion, primary screen, HeLa-JRFL effector, CEM21 target cells, luciferase | hit rate 1.1% among 360,000 | inhibition, % at 12.3 µM | AID 651610, 2012;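 active means mean replicate inhibition score of at least 50 and every replicate individually at or above 50; inconclusive means only one of the two criteria met; inactive means mean below 50 and not all replicates reaching 50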;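 further: 0% = plate neutral controls and 100% = maraviroc near 300 nM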
* hit, by the source's call; ? = inconclusive; / = no result; [ ] = another dose, or the depositor's remark.

structure | miR122 inh | PGC1a acetyl inh | Cneo AK release | FN deposition inh | Yeast UUG start | Env fusion inh
C[C@H]1CN([C@@H](C)CO)S(=O)(=O)c2ccc(C#Cc3ccccn3)cc2O[C@@H]1CN(C)Cc1ccc(F)cc1 | 5[16.7 µM] | -2 | -3 | / | 18 | -32[16.7 µM]
CC(C)CC#Cc1ccc2c(c1)O[C@H](CN(C)Cc1ccccc1)[C@@H](C)CN([C@H](C)CO)S2(=O)=O | 55[16.7 µM] | 52* | / | -11 | 11 | 14[16.7 µM]
CC(C)CC#Cc1ccc2c(c1)O[C@@H](CN(C)Cc1ccccn1)[C@H](C)CN([C@H](C)CO)S2(=O)=O | -6[16.7 µM] | 4 | -13 | 2 | -11 | 91*[16.7 µM]
CC(=O)c1ccc(S(=O)(=O)N2CCN(CC(=O)Nc3ccccc3C(=O)NC3CC3)CC2)cc1 | -2 | -5 | -1 | 3 | -4 | -6
CCCn1c(N)c(C(=O)CSc2nc3ccccc3s2)c(=O)[nH]c1=O | -10 | 4 | / | 6 | / | -19
CC(C)CC#Cc1ccc2c(c1)O[C@@H](CN(C)Cc1ccccc1)[C@H](C)CN([C@@H](C)CO)S2(=O)=O | 14[16.7 µM] | 29 | / | 9 | 14 | -1[16.7 µM]
CC(C)CC#Cc1ccc2c(c1)O[C@H](CN(C)Cc1ccccc1)[C@H](C)CN([C@@H](C)CO)S2(=O)=O | 4[16.7 µM] | 48* | / | 3 | 7 | 33[16.7 µM]
COc1cccc(CNc2nc3cc(-c4ccccc4)sc3c(=O)n2C)c1OC | -6 | / | 1 | 5 | -21 | 66*
COc1cccc(CNc2nc3cc(-c4cccc(Cl)c4)sc3c(=O)n2C)c1OC | -2 | / | 1 | -3 | -16 | 14
CN1C2CCC1/C(=C\c1ccc(F)cc1)C(=O)/C2=C/c1ccc(F)cc1 | / | / | / | -6 | / | 0

Rewritten as labelled records: part of the list above
> CCCn1c(N)c(C(=O)CSc2nc3ccccc3s2)c(=O)[nH]c1=O
- miR122 inh: -10
- PGC1a acetyl inh: 4
- Cneo AK release: /
- FN deposition inh: 6
- Yeast UUG start: /
- Env fusion inh: -19
> C[C@H]1CN([C@@H](C)CO)S(=O)(=O)c2ccc(C#Cc3ccccn3)cc2O[C@@H]1CN(C)Cc1ccc(F)cc1
- miR122 inh: 5[16.7 µM]
- PGC1a acetyl inh: -2
- Cneo AK release: -3
- FN deposition inh: /
- Yeast UUG start: 18
- Env fusion inh: -32[16.7 µM]

(further entries)
structure | miR122 inh | PGC1a acetyl inh | Cneo AK release | FN deposition inh | Yeast UUG start | Env fusion inh
C=CC(=O)N1C/C(=C/c2ccc(F)cc2)C(=O)/C(=C\c2ccc(F)cc2)C1 | -13 | 83* | / | 26 | / | 111*
COC(=O)c1cc(C(=O)c2ccc(C(C)(C)C)cc2)c[nH]1 | -10 | / | -7 | 43* | -4 | -2
COc1ccc(NC(=O)N(C)C[C@H]2OCCCC[C@@H](C)Oc3ccc(NC(=O)c4ccccc4)cc3C(=O)N([C@H](C)CO)C[C@H]2C)cc1 | 44[16.7 µM] | 1 | 83* | 5 | 36 | 27[16.7 µM]
COc1ccc(NC(=O)N(C)C[C@H]2OCCCC[C@@H](C)Oc3ccc(NC(=O)c4ccccc4)cc3C(=O)N([C@@H](C)CO)C[C@H]2C)cc1 | 12[16.7 µM] | 0 | 102* | -1 | 14 | -9[16.7 µM]
C=CCOc1cccc(C2/C(=C(/O)c3ccc4c(c3)CC(C)O4)C(=O)C(=O)N2CCN2CCOCC2)c1 (stereo not given) | 12 | 5 | -1 | -3 | -14 | -11
CC(C)(C)NC(=O)C(c1ccccc1)N(Cc1cccs1)C(=O)c1csnn1 (stereo not given) | -2 | 1 | 2 | -23 | -5 | 72*
Cc1ccc(-c2nc3ncccc3o2)cc1NC(=O)c1ccco1 | 1 | -12 | 19 | 32* | -11 | -38
O=C(CCn1c(=S)oc2ccccc21)Nc1ccc(F)cc1 | / | / | / | 1 | / | -2
CCCCN(C(C)=O)c1ccc2c(c1)C1CC2CCN1C(=O)OCc1ccccc1 (stereo not given) | -6 | 2 | 1 | 11 | -5 | 63*
CCCC(=O)Nc1ccc2c(c1)OC[C@@H](C)N(Cc1ccccc1)C[C@H](C)[C@@H](OC)CN(C)C2=O | 1[16.7 µM] | 1 | 1 | 6 | -5 | -9[16.7 µM]

Further results:
canonical_smiles | miR122 inh | PGC1a acetyl inh | Cneo AK release | FN deposition inh | Yeast UUG start | Env fusion inh
CCN(CC(=O)Nc1ccc(NC(C)=O)cc1)C(=O)c1ccc2c(c1)OCCO2 | -3 | 0 | 2 | -4 | -25 | /
O=C(NCc1ccccc1)C1=C[C@@H](c2csc3ccccc23)C[C@@H](OCCCCO)O1 | / | / | / | -16 | / | 81*
CCOC(=O)/C(=C\c1ccccc1)C(=O)c1cc(C(C)=O)c(Nc2ccccc2)s1 | / | 9 | -1 | / | -7 | /
CCOC(=O)/C(=C\c1cccnc1)C(=O)c1cc(C(C)=O)c(Nc2ccccc2)s1 | -31 | 84* | -1 | / | 6 | /
COc1ccc(N2C(=O)N3[C@H](c4ccc(Cl)cc4)[C@@H]4C(=O)N(C5CCCCC5)C(=O)[C@@H]4[C@]3(Cc3ccc(Cl)cc3)C2=O)cc1 | -6 | 0 | 7 | -2 | -16 | 88*
O=C1[C@H]2[C@@H](c3ccc(F)cc3)N3C(=O)N(c4ccc(Br)cc4)C(=O)[C@@]3(Cc3ccc(Cl)cc3)[C@H]2C(=O)N1C1CCCCC1 | 4 | 2 | -1 | -1 | -8 | 72*
COc1ccc([C@@H]2[C@@H]3C(=O)N(C(C)(C)C)C(=O)[C@@H]3[C@]3(Cc4ccc(Cl)cc4)C(=O)N(c4ccc(OC)cc4)C(=O)N23)cc1 | / | / | -1 | -7 | -10 | ?
C#CCOCCOCCOCCNc1nc(N2CCN(C(=O)[C@H](CCCCN)n3cc(CN)nn3)CC2)nc(N2CCN(C(=O)[C@H](CCC(=O)O)n3cc([C@@H](N)CCCCN)nn3)CC2)n1 | / | / | -1 | 2 | 20 | -7
CCCNC(=O)Nc1ccc2c(c1)C(=O)N(C)C[C@@H](OC)[C@@H](C)CN(Cc1cncnc1)[C@@H](C)CO2 | -1[16.7 µM] | -2 | -2 | 9 | -6 | /
COc1ccc(-c2ncncc2-c2ccc(Cl)cc2)c(O)c1 | -1 | 23 | / | 5 | / | 56*
Cc1ccc(-c2cc(C(=O)NCCCn3ccnc3)c3ccccc3n2)s1 | 123* | -4 | -9 | 6 | -6 | 16
O=C(NCCCn1ccnc1)c1cc(-c2ccncc2)nc2ccccc12 | 3 | 4 | 11 | -6 | -15 | 11
Cn1c(C(=O)NCCCN2CCN(c3ccccc3F)CC2)cc2c(=O)[nH]c3ccccc3c21 | -2 | 8 | -3 | / | 15 | 94*
CN(CCCNC(=O)c1cc2c(=O)[nH]c3ccccc3c2n1C)Cc1ccccc1 | / | / | / | 2 | / | 59*
COC(=O)c1ccc(NC(=O)CN2CCN(c3ccc(Cl)cc3)CC2)cc1 | 2 | 3 | 2 | / | -3 | /

Three compounds out of the list, ordered by SMILES length, lowest first:
canonical_smiles | miR122 inh | PGC1a acetyl inh | Cneo AK release | FN deposition inh | Yeast UUG start | Env fusion inh
Cc1ccc(-c2cc(C(=O)NCCCn3ccnc3)c3ccccc3n2)s1 | 123* | -4 | -9 | 6 | -6 | 16
CN(CCCNC(=O)c1cc2c(=O)[nH]c3ccccc3c2n1C)Cc1ccccc1 | / | / | / | 2 | / | 59*
COc1ccc(N2C(=O)N3[C@H](c4ccc(Cl)cc4)[C@@H]4C(=O)N(C5CCCCC5)C(=O)[C@@H]4[C@]3(Cc3ccc(Cl)cc3)C2=O)cc1 | -6 | 0 | 7 | -2 | -16 | 88*

Further entries.
canonical_smiles | miR122 inh | PGC1a acetyl inh | Cneo AK release | FN deposition inh | Yeast UUG start | Env fusion inh
CC(C)(C)[C@@H]1CCC(=O)N(CC[C@H](Sc2ccc(Br)cc2)c2ccccc2)CC1 | / | / | -2 | -14 | -15 | 67*
CC1CCc2sc3ncnc(N4CCOCC4)c3c2C1 (stereo not given) | -3 | 20 | / | / | / | /
CC1CCc2c(sc3ncnc(N4CCOCC4)c23)C1 (stereo not given) | 11 | / | 1 | 3 | 0 | 92*
O=C1CCc2ccccc2N1Cc1ccccc1 | 5 | -2 | -1 | 5 | -8 | -16
COc1ccc(S(=O)(=O)NC2CC(C)(C)NC(C)(C)C2)c(C)c1C | / | / | / | -3 | / | -14

High-throughput results: PubChem, Broad Institute
